Most compounds without a hit are left out; they make up all but 2.3% or so of the library.
Mito fusion act: inhibitors of mitochondrial division or activators of mitochondrial fusion | S. cerevisiae fusion-defective mutant growth rescue, CellTiterGlo 48 h | Potency, µM (series often up to 46.1 µM), for inactives: at the top dose growth rescue (activation), usual class: activators | 0.23% of 320,000 active; note: potency is the fitted concentration of half-maximal effect; % of control where 0% means no effect; nearly all actives have a fitted effect of over 45% in size
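Yeast fusion mutant, YPEG (non-fermentable carbon), compound, 48 h at 37C non-permissive; CellTiterGlo added, 10 min RT, luminescence read. Rescued growth = division inhibition.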
miR-21 reporter: raises the signal of a miR-21 reporter; HeLa miR-21 FLuc reporter, luciferase, 48 h; Potency, µM (highest dose often 38.3 µM), inactives show at the highest dose reporter change, positive = more light; 340,000 tested, under 10 active; active = well fitted rising curve with a large enough effect; inconclusive = small, poorly fitted or top-dose-only effect; inactive = no such curve, though single readings can be large or run the other way;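 note: % of control where 0% means no effect; miR-21 action dims this reporter so a rising signal means less miR-21 action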
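HeLa cells endogenously expressing miR-21, stably carrying CMV-driven firefly luciferase with a downstream miR-21 binding site, 2000 cells/well. Titrations up to approximately 40 uM, 48 hours; luciferase luminescence read.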
Nrf2 activator: activators of Nrf2 (ARE) signaling; AID 624171; AREc32 ARE-luciferase reporter (MCF7-derived line), luminescence, 24 h; 0.31% of 410,000 active; Potency, µM (top dose mostly 46.1 µM), without a hit: at the top dose activation, hits mostly activators; note: potency is the fitted concentration of half-maximal effect; % of control where 0% means no effect; nearly all actives have a fitted effect of over 65% in size
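ARE-driven firefly luciferase activity in AREc32 cells measured after a 24 hr compound exposure at 37 deg C, using Steady-Glo reagent and a 30 min room-temperature hold.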
GRP78 ERSR act: ER stress response induction in glioma. U87-MG GRP78 promoter luciferase reporter, 16 h. Potency, µM, for the others: top-dose activation, most hits filed as activators. 0.02% of 420,000 active; note: potency is the fitted concentration of half-maximal effect; series mostly up to about 76 µM; % of control where 0% means no effect; nearly all actives have a fitted effect of over 35% in size
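ERSR induction read as luciferase luminescence (Bright-Glo, 10 min at room temperature) in stably transfected human U87-MG glioma cells exposed to compounds for 16 h, using GRP78 as sensor.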
A549 tox: counter-screen for Nrf2 inhibitors: cytotoxicity in A549 cells. 0.16% of 390,000 active. AID 504648. A549 ARE-Fluc cells, CellTiter-Fluor viability, 18-24 h. Potency, µM (highest dose often 46 µM), for the others: at the top dose activity change, negative = cytotoxicity, hits mostly inhibitors; note: potency is the fitted concentration of half-maximal effect; % is set by controls: 0 for no effect and ±100 for the full control effect
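A549 ARE-Fluc cells in 5% FBS OPTI-MEM, 5000 cells/well, rested 2 h then exposed to compounds in concentration-response for 18-24 h at 37 °C. Viability by CellTiter-Fluor fluorescence (Ex 405/Em 525) after 30 min; luciferase luminescence (BugLite, 15 min, RT) read afterwards.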
Nrf2 block: Nrf2 pathway inhibition; A549 ARE-Fluc reporter, luciferase luminescence, 18-24 h; Potency, µM (titrated, usually from 46 µM), for the others: at the highest dose activity change, negative = inhibition, usual class: inhibitors; 2.1% of 360,000 active; note: potency is the fitted concentration of half-maximal effect; % is set by controls: 0 for no effect and ±100 for the full control effect; nearly all actives have a fitted effect of over 60% in size
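Nrf2 activity is the BugLite luminescence, read 15 min after reagent at room temperature, following CellTiter-Fluor cytotoxicity readout (30 min, 37C). Compound titrations were applied for 18-24 h to 5000 A549 ARE_Fluc cells/well in 5% FBS OPTI-MEM.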
* marks the source's active call; other numbers are inactive results; [ ] = remark or other dose. Unless noted, calls come from the whole dose curve; as a rule, active = well fitted curve in the direction sought with a large enough effect; inconclusive = small, poorly fitted or top-dose-only effect, or another doubt; inactive = no such curve, though single readings can be large; an effect the other way counts as inactive or inconclusive.

Results for C(=NN1CCCCCC1)c1ccc2ccccc2n1 ?
Nrf2 activator: -1.9%; GRP78 ERSR act: -14.3%; A549 tox: -9.7%; Nrf2 block: 18.4µM*

How did CCC(=O)N(Cc1cc(=O)[nH]c2ccccc12)c1ccccc1 do in these assays?
Mito fusion act: 1.2%; miR-21 reporter: 2.8%; Nrf2 activator: 0.4%; GRP78 ERSR act: -3.3%; A549 tox: 6.3%; Nrf2 block: 2.6%

Results for O=C(CCl)N(Cc1cc(=O)[nH]c2ccccc12)c1ccccc1 ?
Mito fusion act: -17.5%; miR-21 reporter: inconclusive; Nrf2 activator: -3.5%; GRP78 ERSR act: -12.7%; A549 tox: -12.6%; Nrf2 block: 23.1µM*

What do the screens show for `N#Cc1ccc(C(=O)N(Cc2ccco2)c2c(N)n(Cc3ccccc3)c(=O)[nH]c2=O)cc1`?
Mito fusion act: 1.0%; Nrf2 activator: 2.4%; GRP78 ERSR act: -4.0%; A549 tox: -0.4%; Nrf2 block: -2.2%

Results for O=C1CS/C(=N\N=C\c2ccccc2Cl)N1CC1CC1 ?
Mito fusion act: 4.0%; miR-21 reporter: -10.5%; Nrf2 activator: 10.5%; GRP78 ERSR act: -2.1%; A549 tox: 9.9%; Nrf2 block: 14.7%

Results for COc1ccc(CN(C)C(=O)c2cc(-c3ccccc3)nc3ccc(C)cc23)c(OC)c1OC ?
Mito fusion act: -5.5%; miR-21 reporter: 13.1%; Nrf2 activator: 2.7%; GRP78 ERSR act: -3.8%; A549 tox: -8.6%; Nrf2 block: -15.3%

What do the screens show for `Cc1c(CN(C)C(=O)c2cc(-c3ccccc3)nc3ccc(Br)cc23)cnn1C`?
miR-21 reporter: 18.5%; Nrf2 activator: -1.2%; GRP78 ERSR act: -1.7%; A549 tox: -0.4%; Nrf2 block: 9.2µM*

How did O=C(CCC1CCCC1)N1CCN(S(=O)(=O)Cc2ccccc2)CC1 do in these assays?
Mito fusion act: 6.8%; miR-21 reporter: 1.8%; Nrf2 activator: -0.3%; GRP78 ERSR act: -9.2%; A549 tox: -6.0%; Nrf2 block: 3.3%

What do the screens show for `COc1cc(C2C(C(=O)Nc3ccccc3C)=C(C)Nc3nc(SCc4cc(C)ccc4C)nn32)ccc1O` (configuration not stated)?
miR-21 reporter: 7.0%; Nrf2 activator: 1.0%; GRP78 ERSR act: 14.5%; A549 tox: inconclusive; Nrf2 block: 16.4µM*

Results for CC(=O)c1c(C)[nH]c(C(=O)CSc2ncnc3sc(-c4ccccc4)cc23)c1C ?
Mito fusion act: -2.2%; miR-21 reporter: -10.3%; Nrf2 activator: 0.2%[9.22 µM]; GRP78 ERSR act: -2.1%; A549 tox: -7.3%; Nrf2 block: 5.17µM*

What do the screens show for `CC(=O)c1c(C)[nH]c(C(=O)CSc2nnc(-c3ccccc3)o2)c1C`?
Mito fusion act: 3.2%; miR-21 reporter: -13.3%; Nrf2 activator: 0.5%; GRP78 ERSR act: -6.2%; A549 tox: -13.6%; Nrf2 block: 20.6µM*

What do the screens show for `Oc1cccc2ccc(Nc3ccccn3)nc12`?
Mito fusion act: -3.5%; miR-21 reporter: inconclusive; Nrf2 activator: -1.5%; GRP78 ERSR act: 5.6%; A549 tox: 4.11µM*; Nrf2 block: inconclusive

Some of these compounds in order of number of heavy atoms, falling:
Results for COc1ccc(CN(C)C(=O)c2cc(-c3ccccc3)nc3ccc(C)cc23)c(OC)c1OC ?
Mito fusion act: -5.5%; miR-21 reporter: 13.1%; Nrf2 activator: 2.7%; GRP78 ERSR act: -3.8%; A549 tox: -8.6%; Nrf2 block: -15.3%

What do the screens show for `CC(=O)c1c(C)[nH]c(C(=O)CSc2nnc(-c3ccccc3)o2)c1C`?
Mito fusion act: 3.2%; miR-21 reporter: -13.3%; Nrf2 activator: 0.5%; GRP78 ERSR act: -6.2%; A549 tox: -13.6%; Nrf2 block: 20.6µM*

How did CCC(=O)N(Cc1cc(=O)[nH]c2ccccc12)c1ccccc1 do in these assays?
Mito fusion act: 1.2%; miR-21 reporter: 2.8%; Nrf2 activator: 0.4%; GRP78 ERSR act: -3.3%; A549 tox: 6.3%; Nrf2 block: 2.6%

In the list so far, these have an aryl methoxy group.
Results for COc1ccc(CN(C)C(=O)c2cc(-c3ccccc3)nc3ccc(C)cc23)c(OC)c1OC ?
Mito fusion act: -5.5%; miR-21 reporter: 13.1%; Nrf2 activator: 2.7%; GRP78 ERSR act: -3.8%; A549 tox: -8.6%; Nrf2 block: -15.3%

What do the screens show for `COc1cc(C2C(C(=O)Nc3ccccc3C)=C(C)Nc3nc(SCc4cc(C)ccc4C)nn32)ccc1O` (configuration not stated)?
miR-21 reporter: 7.0%; Nrf2 activator: 1.0%; GRP78 ERSR act: 14.5%; A549 tox: inconclusive; Nrf2 block: 16.4µM*

Continued:
What do the screens show for `c1ccc(Nc2ccccc2Nc2ccccn2)nc1`?
Mito fusion act: -0.7%; miR-21 reporter: -7.4%; Nrf2 activator: 2.3%; GRP78 ERSR act: -3.7%; A549 tox: -2.6%

How did C/C(=N\OCC(=O)Nc1ccccc1Br)c1cccs1 do in these assays?
Mito fusion act: -7.5%; miR-21 reporter: -37.6%; Nrf2 activator: 22.4µM*; GRP78 ERSR act: 9.4%; A549 tox: 18.9%; Nrf2 block: 10.9%

How did CC(=O)Nc1cccc(-n2cc3c(c2-c2ccccc2Cl)c(=O)n(C)c(=O)n3C)c1 do in these assays?
miR-21 reporter: -43.8%; Nrf2 activator: 5.2%; GRP78 ERSR act: -1.9%; A549 tox: -2.0%; Nrf2 block: 9.1%

What do the screens show for `O=[N+]([O-])c1ccccc1N/N=C\c1ccccc1Cl`?
Mito fusion act: -2.3%; miR-21 reporter: -61.2%; Nrf2 activator: 10µM*; GRP78 ERSR act: 1.5%; A549 tox: -2.3%; Nrf2 block: inconclusive

What do the screens show for `O=[N+]([O-])c1ccccc1/C=N/NC1=NCCN1`?
Nrf2 activator: 0.2%; GRP78 ERSR act: -4.7%; A549 tox: -2.0%; Nrf2 block: 1.8%

How did O=[N+]([O-])c1ccccc1C=NNc1ccccc1 do in these assays?
Nrf2 activator: 6.31µM*; GRP78 ERSR act: 12.3%; A549 tox: -8.2%; Nrf2 block: -0.6%

Results for COc1cc(C(=O)NCc2ncccc2C)ccc1OC1CCN(C(C)=O)CC1 ?
Mito fusion act: 0.5%; miR-21 reporter: -7.2%; Nrf2 activator: -0.2%; GRP78 ERSR act: -5.2%; A549 tox: -4.8%; Nrf2 block: 12.5%

How did Cc1cc(NC(=O)c2sc(Nc3cccc(C(F)(F)F)c3)nc2N)no1 do in these assays?
Mito fusion act: 13.2%; miR-21 reporter: 6.5%; Nrf2 activator: 2.7%; GRP78 ERSR act: -6.4%; A549 tox: inconclusive; Nrf2 block: 16.4µM*

How did COc1ccc(C(OC(=O)c2ccco2)C(=O)NC2CCCC2)cc1 (configuration not stated) do in these assays?
Mito fusion act: -12.6%; miR-21 reporter: -3.0%; Nrf2 activator: -0.2%; GRP78 ERSR act: -3.3%; A549 tox: -3.1%; Nrf2 block: -8.0%

Results for CC(C)CNc1ncnc2c1cnn2Cc1ccccc1Cl ?
Mito fusion act: -4.6%; miR-21 reporter: -1.4%; Nrf2 activator: -2.4%; GRP78 ERSR act: 1.1%; A549 tox: 9.7%; Nrf2 block: -3.5%

What do the screens show for `CC(C)Nc1ncnc2c1cnn2Cc1ccccc1Cl`?
Mito fusion act: -0.3%; miR-21 reporter: 0.4%; Nrf2 activator: -0.2%; GRP78 ERSR act: -3.9%; A549 tox: 2.3%; Nrf2 block: 13µM*

What do the screens show for `O=C1C=C(c2ccccc2)CC(c2ccc(F)cc2)C1` (configuration not stated)?
Nrf2 activator: -1.6%; GRP78 ERSR act: 1.2%; A549 tox: -3.2%; Nrf2 block: 0.9%

Results for O=C1C=C(c2ccccc2)CC(/C=C/c2ccccc2)C1 (configuration not stated) ?
Mito fusion act: 15.8µM*; miR-21 reporter: -16.8%; Nrf2 activator: -0.3%; GRP78 ERSR act: -2.4%; A549 tox: 7.5%; Nrf2 block: -7.5%

What do the screens show for `Cc1ccc2c(c1)N(C(=O)CCC(=O)NCc1ccccc1)CC(C)O2` (configuration not stated)?
Mito fusion act: 0.0%; miR-21 reporter: -0.5%; Nrf2 activator: 1.4%; GRP78 ERSR act: 1.6%; A549 tox: 10.1%; Nrf2 block: inconclusive

Compound activity from PubChem.
